Vapor pressure values, as collected for the OPERA models

Source: data files of OPERA 2.9 (Mansouri et al.), github.com/kmansouri/OPERA.

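The numbers are reported measurements, compiled and curated for the OPERA QSAR suite. One number stands for a compound and property, with no spread given. Method, purity and exact conditions of the single measurements are not given. Where a salt, mixture or single isomer is drawn, the source does not say that exactly this form was tested. Some entries may be limits or estimates that an upstream database listed as plain numbers.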

Vapor pressure is log10 of mmHg; the set covers 15 to 30 °C, mostly 20 to 25 °C.

For Clc1cc(Cl)c(-c2c(Cl)c(Cl)cc(Cl)c2Cl)c(Cl)c1Cl [2,2',3,3',4,5',6,6'-Octachlorobiphenyl] the data give log VP -5.465 (log10 mmHg).
For O=C(CCl)C(Cl)Cl [1,1,3-Trichloropropanone] the data give log VP -0.648 (log10 mmHg).
For CCCCC(CC)C(=O)Cl (stereo unspecified) [2-Ethylhexanoyl chloride] the data give log VP -0.005 (log10 mmHg).
For Clc1ccc(C(Cl)(Cl)Cl)cc1 [4-Chlorobenzotrichloride] the data give log VP -1.523 (log10 mmHg).
For CC(C)(C)c1cc([N+](=O)[O-])cc([N+](=O)[O-])c1O [Dinoterb] the data give log VP -3.824 (log10 mmHg).
For ClCCc1ccccc1 [1-Chloro-2-phenylethane] the data give log VP 0.227 (log10 mmHg).
For CCOP(=O)(OCC)SCCSCC [Demeton-S] the data give log VP -3.583 (log10 mmHg).
For O=C(O)CCCCCCCCCCC(=O)O.OCCN(CCO)CCO.OCCN(CCO)CCO the data give log VP -4.524 (log10 mmHg).
For [N-]=[N+]=CC(=O)OC[C@H](N)C(=O)O [Azaserine] the data give log VP -9.815 (log10 mmHg).
For COC(F)(F)C(F)C(F)(F)F (stereo unspecified) [1,1,1,2,3,3-Hexafluoro-3-methoxypropane] the data give log VP 2.425 (log10 mmHg).
For C1CC(N2CCOCC2)CCN1 [4-Morpholinopiperidine] the data give log VP -2.326 (log10 mmHg).
For CCCCCCCCCCCC(=O)OO [Dodecaneperoxoic acid] the data give log VP -3.602 (log10 mmHg).
For N#C/N=C1\SCCN1Cc1ccc(Cl)nc1 [Thiacloprid] the data give log VP -11.22 (log10 mmHg).
For O=S(=O)(F)C(F)(F)C(F)(F)C(F)(F)C(F)(F)F [Perfluorobutanesulfonyl fluoride] the data give log VP 2.063 (log10 mmHg).
For CCCCCCCCCCOC(=O)c1ccccc1C(=O)OCCCCCCCCCC [Didecyl phthalate] the data give log VP -7.86 (log10 mmHg).
For C[C@]12CCC(=O)C=C1CC[C@@H]1[C@@H]2CC[C@]2(C)C(=O)CC[C@@H]12 [4-Androstene-3,17-dione] the data give log VP -7.824 (log10 mmHg).
For CC(C)Nc1ccc(Nc2ccccc2)cc1 [N-Isopropyl-N'-phenyl-p-phenylenediamine] the data give log VP -4.28 (log10 mmHg).
For C/C=C/C1C(C(=O)OCc2c(F)c(F)c(COC)c(F)c2F)C1(C)C (stereo partly drawn) [Metofluthrin] the data give log VP -5.149 (log10 mmHg).
For [Na+].[O-]c1nc(Cl)c(Cl)cc1Cl [Sodium 3,5,6-trichloropyridin-2-olate] the data give log VP -7.745 (log10 mmHg).
For CCCCC(=O)Cl [Valeryl chloride] the data give log VP 0.943 (log10 mmHg).
For NP(N)(=O)Oc1ccccc1 [Phosphorodiamidic acid, phenyl ester] the data give log VP -4.98 (log10 mmHg).
For O=NN1CCCCC1 [N-Nitrosopiperidine] the data give log VP -1.036 (log10 mmHg).
For CNP(=O)(OC)Oc1ccc(C(C)(C)C)cc1Cl (stereo unspecified) [Crufomate] the data give log VP -3.1 (log10 mmHg).
For Clc1ccccc1-c1c(Cl)cccc1Cl [2,2',6-Trichlorobiphenyl] the data give log VP -2.907 (log10 mmHg).
For Clc1ccc(-c2c(Cl)cc(Cl)cc2Cl)cc1 the data give log VP -3.943 (log10 mmHg).
For CC(Oc1ccc(Oc2cnc3cc(Cl)ccc3n2)cc1)C(=O)O (stereo unspecified) [Quizalofop] the data give log VP -2.187 (log10 mmHg).
For Clc1ccc(-c2ccc(Cl)c(Cl)c2Cl)cc1 the data give log VP -4.495 (log10 mmHg).
For ClC=CCCl [1,3-Dichloropropene] the data give log VP 1.477 (log10 mmHg).
For CCOC(=O)C(Cc1ccccc1)C(C)=O (stereo unspecified) [Ethyl 2-benzyl-3-oxobutanoate] the data give log VP -2.907 (log10 mmHg).
For CCCCOCCOP(=O)(OCCOCCCC)OCCOCCCC [Tris(2-butoxyethyl) phosphate] the data give log VP -6.844 (log10 mmHg).
For COc1c(Cl)cc(Cl)cc1Cl [Benzene, 1,3,5-trichloro-2-methoxy-] the data give log VP -3.265 (log10 mmHg).
For Clc1ccc(Cl)c(-c2c(Cl)c(Cl)c(Cl)c(Cl)c2Cl)c1Cl [2,2',3,3',4,5,6,6'-Octachlorobiphenyl] the data give log VP -5.465 (log10 mmHg).
For CCS(=O)(=O)c1nc2ccccn2c1S(=O)(=O)NC(=O)Nc1nc(OC)cc(OC)n1 [Sulfosulfuron] the data give log VP -9.18 (log10 mmHg).
For Nc1ccc(Cc2ccc(N)cc2)cc1 [4,4'-Diaminobiphenyl methane] the data give log VP -6.759 (log10 mmHg).
For Clc1ccc(-c2ccccc2Cl)c(Cl)c1 [2,2',4-Trichlorobiphenyl] the data give log VP -3.225 (log10 mmHg).
For CC(C)(C)C(O)C(Oc1ccc(-c2ccccc2)cc1)n1cncn1 (stereo unspecified) [Bitertanol] the data give log VP -11.39 (log10 mmHg).
For C1CC2OC2CC1C1CO1 (stereo unspecified) [4-Vinyl-1-cyclohexene diepoxide] the data give log VP -1 (log10 mmHg).
For Clc1cc(Cl)c(-c2c(Cl)cccc2Cl)c(Cl)c1 [2,2',4,6,6'-Pentachlorobiphenyl] the data give log VP -3.896 (log10 mmHg).
For c1ccc2c(c1)CCNC2 [1,2,3,4-Tetrahydroisoquinoline] the data give log VP -1.474 (log10 mmHg).
For FC(F)CNCc1ccc(Cl)nc1 [N-[(6-Chloro-3-pyridinyl)methyl]-2,2-difluoroethanamine] the data give log VP -3.637 (log10 mmHg).
For Clc1cccc(-c2c(Cl)ccc(Cl)c2Cl)c1 the data give log VP -3.936 (log10 mmHg).
For NCCc1ccccc1 [Phenethylamine] the data give log VP -0.572 (log10 mmHg).
For Clc1cccc(-c2ccccc2Cl)c1 [2,3'-Dichlorobiphenyl] the data give log VP -2.975 (log10 mmHg).
For CP(=O)(O)CCC(N)C(=O)[O-].[NH4+] (stereo unspecified) [Glufosinate-ammonium] the data give log VP -6.633 (log10 mmHg).
For CN(C)C(=O)Nc1cccc(OC(=O)NC(C)(C)C)c1 the data give log VP -10.35 (log10 mmHg).
For O=C1CCO1 [beta-Propiolactone] the data give log VP 0.531 (log10 mmHg).
For NCC(F)F [Ethylamine, 2,2-difluoro-] the data give log VP 2.076 (log10 mmHg).
For Clc1ccc2ccc(Cl)cc2c1 [2,7-Dichloronaphthalene] the data give log VP -2.585 (log10 mmHg).
For C1CCC(NC2CCCCC2)CC1.CC(C)(O)c1ccccc1CCC(SCC1(CC(=O)O)CC1)c1cccc(/C=C/c2ccc3ccc(Cl)cc3n2)c1 (stereo partly drawn) the data give log VP -7.326 (log10 mmHg).
For CCC(N)c1ccccc1 (stereo unspecified) [1-Phenylpropan-1-amine] the data give log VP -0.702 (log10 mmHg).
For CC(C)CC(=O)Cl [Butanoyl chloride, 3-methyl-] the data give log VP 1.242 (log10 mmHg).
For O=C([O-])c1cc(Oc2ccc(C(F)(F)F)cc2Cl)ccc1[N+](=O)[O-].[Na+] [Acifluorfen sodium] the data give log VP -7.063 (log10 mmHg).
For CCCCC(CC)COP(=S)(S)OCC(CC)CCCC (stereo unspecified) [Bis(2-ethylhexyl) dithiophosphate] the data give log VP -3.569 (log10 mmHg).

Excerpt, the opening 3 entries:

{"smiles": "Clc1cc(Cl)c(-c2c(Cl)c(Cl)cc(Cl)c2Cl)c(Cl)c1Cl", "name": "2,2',3,3',4,5',6,6'-Octachlorobiphenyl", "log VP (log10 mmHg)": "-5.465"}
{"smiles": "O=C(CCl)C(Cl)Cl", "name": "1,1,3-Trichloropropanone", "log VP (log10 mmHg)": "-0.648"}
{"smiles": "CCCCC(CC)C(=O)Cl", "stereo": "stereo unspecified", "name": "2-Ethylhexanoyl chloride", "log VP (log10 mmHg)": "-0.005"}